{
  "source": "patent US5874583A",
  "about": "“2,3-dihydro-1H-isoindole derivatives” (Hoechst Marion Roussel Inc., priority 1997, dated 1999)",
  "test_system": "serotonin (5-hydroxytryptamine (5HT)) uptake",
  "assay": "[3H]-Serotonin uptake in rat whole brain and hypothalamic synaptosomes",
  "type": "biochemical",
  "conditions": "[3H]-5HT 50 nM, 37° C., 5 minutes",
  "description": "[^3 H]-Serotonin Uptake in Rat Whole Brain and Hypothalamic Synaptosomes\nOthers claim that altered serotonergic function determines the change associated with obsessive-compulsive disorder.\nThis activity is determined in an assay which measures [^3 H]-serotoninuptake in rat whole brain and hypothalamic synaptosomes. The assay described below is used as a biochemical screen for potential antidepressants which block serotonin (5-hydroxytryptamine (5HT)) uptake.\n[^3 H]-5HT transport has been characterized in the central nervous system tissue and found to be saturable, sodium and temperature-dependent,inhibited by ouabain, metabolic inhibitors, tryptamine analogs and tricyclic antidepressants.\nMale CR Wistar rats (100-125 g)\n1. Krebs-Henseleit Bicarbonate Buffer, pH 7.4 (KHBB):\nThe batch is aerated for 60 minutes with 95% 02 /5% CO2, the pH is checked to insure it is at 7.4±0.1, then add bovine serum albumin (Sigma cat# A-7906) 1 mg/ml.\n3. Sucrose solution: 0.32M sucrose containing 5 mM HEPES and 0.1 mM EDTA; pH to 7.3 using Tris base.\n4. A 0.1 mM stock solution of serotonin creatinine SO4 is made up in 0.01N HCl. This is used to dilute the specific activity of the radiolabeled 5HT.\n5. 5-[1,2-^3 H(N)]-Hydroxytiyptamine creatinine sulfate (serotonin), specific activity 20-30 Ci/mmol, is used.\nThe final desired concentration of [^3 H]-5HT in the assay is 50 nM. The dilution factor is 0.8. […]",
  "data": [
    {"smiles": "CN(C)CCC=C1c2ccccc2CCc2ccccc21", "note": "[Amitriptyline, reference compound]", "values": [
      {"measurement": "IC50", "value": 0.091, "unit": "µM"}
    ]}
  ]
}
